# Data: patent publication US8741644B2, “Method for producing mast cells from pluripotent stem cells” (Kyoto University, priority 2009, dated 2014)
# B1: IL-3: interleukin; hematopoietic factor added to the step 2 culture (protein, UniProt P08700 20-152, looked up)
# Interleukin-3: APMTQTTPLKTSWVNCSNMIDEIITHLKQPPLPLLDFNNLNGEDQDILMENNLRRPNLEAFNRAVKSLQNASAIESILKNLLPCLPLATAAPTRHPIHIKDGDWNEFRRKLTFYLKTLENAQAQQTTLSLAIF
# Test system: hESC-derived hematopoietic progenitor cells
# Test: Cell proliferation in step 2 suspension culture with various cytokine combinations
# Format: cell-based, human
# Details: co-cultured hESC (H1)/AGMS-3 cells in IMDM, 10% FBS, cytokine combinations with or without IL-3, FIG. 9
# Method: 5×10^5 cells in the co-culture of hESCs (H1) and AGMS-3 cells (step 1) were replaced in suspension culture consisting IMDM, 10% FBS (F) and various cytokine combinations (step 2). S, 6, 3, V, and P means SCF, IL-6, IL-3, VEGF, and platelet derived growth factor (PDGF), respectively.
# To generate mature MCs from hESC-derived hematopoietic progenitor cells, in this step, total co-cultured cells obtained from Step 1 were cultured in non-adhesion 35 mm dishes (Sumilon, surfaces of the plates are resistant to cell adhesion) nurtured by IMDM with 10% FBS and a cocktail of cytokines favoring hematopoietic progenitor cell development (SCF, IL-3, IL-6, FL, TPO). After 7 days of the culture, most of the cells proliferated were hematopoietic cells with a property of myeloid progenitors. The cells expanded to 1.75±0.6×10^6 (n=5) from total co-cultured cells in one 6-well at day 7, which was 29 to 117-fold from initial number of undifferentiated hESCs. The concentration of CD34^÷ cells was 9.1-fold. […] However, after one week in this IL-3-oriented culture, most of the cells shared a phenotype of myeloid progenitors and continuously differentiated to granulocytes and macrophages, but few c-kit^+ mast cells. For this reason, IL-3 was excluded in Step 3.
molecule,measurement,value
B1,cell proliferation,greatly supported cell proliferation
